## Binding of CDR-mutated scFvs to a peptide of the spike HR2 region

The target is the same throughout: PDVDLGDISGINAS, from the HR2 region of SARS-CoV-2 spike.

Parent: Ab-95, a human scFv built as VH, three GGGGS repeats, VL. Only the CDRs of the light chain vary.
VH: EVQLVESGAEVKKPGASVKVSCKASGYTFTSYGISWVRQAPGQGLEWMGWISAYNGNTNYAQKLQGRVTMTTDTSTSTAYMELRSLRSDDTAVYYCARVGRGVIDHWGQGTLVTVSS
VL: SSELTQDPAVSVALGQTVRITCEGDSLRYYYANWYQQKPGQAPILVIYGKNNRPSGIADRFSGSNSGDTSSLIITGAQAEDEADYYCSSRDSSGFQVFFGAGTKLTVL

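Phage display of a naive human antibody library on the peptide gave the parent. The library (AAYL52) carries one to three amino acid substitutions per variant, with no insertions or deletions. The scFvs were displayed on barcoded MATa yeast, the peptide on MATalpha yeast. Pairs that bind mate more often; barcode pairs of the diploids are counted by sequencing. The ratio of observed to expected reads was calibrated, replicate by replicate, on BCL2-family standards whose Kd was known from biolayer interferometry. Each pool was mated in three replicate cultures.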

The parent's light chain CDRs are EGDSLRYYYAN, GKNNRPS, SSRDSSGFQVF; each variant's own CDRs replace them letter for letter.
Values are log10 of the apparent Kd in nM; lower means stronger binding.
A mean of the replicates is given; it leaves out those without a signal.
"no signal" marks a missing value. The strain was present, yet no cells mated with the target were sequenced in any replicate, which points to weak or no binding.
In this assay the parent's reference entry averaged 2.31; its copy inside this library read 2.25.
As a blank, each scFv also met three strains without target: over library AAYL52, 28% of these pairings were detected, typically at 3.91 and seldom below 2.90. For each scFv, signals with the empty controls are counted beside the result.

For EGTSLRYYYAN | PWNNRPS | SSRDSSGFQVF, the assay gave 4.09 (2 of 3 replicates; controls 4 of 9).
For EGDSLRYYYAN | GKNNRPS | SSRDNSGNQVT, the assay gave no signal (0 of 3 replicates; controls 0 of 9).
For EGESLRYYYAN | GKNNRPS | SSRDSEGIQVF, the assay gave 3.50 (3 of 3 replicates; controls 1 of 9).
For EDDSQRYYYAN | AKNNRPS | SSRDSSGFQVF, the assay gave 4.20 (2 of 3 replicates; controls 1 of 9).
For EGDSLRYYYKN | GKNNRPS | SSRDSSKFQVF, the assay gave 2.89 (1 of 3 replicates; controls 2 of 9).
For EGGSLRYYSAN | GKNNRPS | SSRDSSGFVVF, the assay gave 3.25 (3 of 3 replicates; controls 0 of 9).
For EGDSWRYYGAN | GKPNRPS | SSRDSSGFQVF, the assay gave 4.46 (1 of 3 replicates; controls 4 of 9).
For ENDSLRYKYAN | GKNNRPS | SSRDSSTFQVF, the assay gave 4.30 (2 of 3 replicates; controls 2 of 9).
For EGTSLRYYYAN | TKNNRPQ | SSRDSSGFQVF, the assay gave 3.33 (2 of 3 replicates; controls 2 of 9).
For EGDSLSYYYCN | GKNNEPS | SSRDSSGFQVF, the assay gave 4.18 (2 of 3 replicates; controls 2 of 9).
For EGDSLRYKYAN | GKNNRPS | SSCDSMGFQVF, the assay gave no signal (0 of 3 replicates; controls 0 of 9).
For EGDSLRYYYAN | GKNERPS | SQRDSSGFQVF, the assay gave 2.13 (3 of 3 replicates; controls 0 of 9).
For EGDSLRPYYAN | GKNNRPS | SSRDKVGFQVF, the assay gave no signal (0 of 3 replicates; controls 2 of 9).
For TGDSLRYYYEN | GKNNRPS | SSRDSSGNQVF, the assay gave 4.33 (2 of 3 replicates; controls 4 of 9).
For EGDSLRYYYAN | GHNNRPY | SSRDSSIFQVF, the assay gave 2.53 (3 of 3 replicates; controls 1 of 9).
For ENDSLRCRYAN | GKNNRPS | SSRDSSGFQVF, the assay gave 3.18 (3 of 3 replicates; controls 3 of 9).
For EGDSLRYYYAP | GKNNRPS | SSIDSSGFQDF, the assay gave 5.57 (2 of 3 replicates; controls 2 of 9).
For EGDSLRYYYAN | CKNNRPS | SSRCSSGFQVF, the assay gave 4.31 (1 of 3 replicates; controls 5 of 9).
For EGDSLRYYYAN | GRNIRPS | SSRDRSGFQVF, the assay gave 2.61 (3 of 3 replicates; controls 0 of 9).
For EGDSHRYYYGW | GKNNRPS | SSRDSSGFQVF, the assay gave 5.56 (1 of 3 replicates; controls 4 of 9).
For EGDSLRYYHAN | GKNNRPS | SERDMSGFQVF, the assay gave 3.19 (2 of 3 replicates; controls 0 of 9).
For EGDSLRYYCAN | GKNARPS | SSRDSSGFQVF, the assay gave 2.05 (3 of 3 replicates; controls 1 of 9).
For EGDSLRYYYAS | GHNNRPS | SSRISSGFQVF, the assay gave no signal (0 of 3 replicates; controls 2 of 9).
For EGDSLRYYYAN | GKINRPS | SSRDSMGFQVF, the assay gave 4.08 (3 of 3 replicates; controls 3 of 9).
For EGDSLFYYYAN | GSNNRPS | SSYDSSGFQVF, the assay gave 4.46 (1 of 3 replicates; controls 2 of 9).
For RGDSLCYYYAA | GKNNRPS | SSRDSSGFQVF, the assay gave 3.16 (3 of 3 replicates; controls 2 of 9).
For EPDSLRAYYAN | GKNNRNS | SSRDSSGFQVF, the assay gave 4.42 (2 of 3 replicates; controls 2 of 9).
For EGESLRYYYAN | GKNNRPS | SSRDSSGFQNP, the assay gave 3.16 (3 of 3 replicates; controls 5 of 9).
For MGDSLRYYHAN | GKNNRPS | SCRDSSGFQVF, the assay gave 1.31 (3 of 3 replicates; controls 2 of 9).
For EGSSLRYYYAN | GKNNRWS | SSRESSGFQVF, the assay gave 2.56 (2 of 3 replicates; controls 2 of 9).
For EGDSLRYSYAD | GKNNRPS | SSRDSPGFQVF, the assay gave 2.87 (3 of 3 replicates; controls 3 of 9).
For EGDSLRYYYAN | GKNNRPD | RSRDLSGFQVF, the assay gave 3.66 (2 of 3 replicates; controls 2 of 9).
For EGASLRYYYAN | GKNNQPS | SSRDSSIFQVF, the assay gave 4.01 (2 of 3 replicates; controls 3 of 9).
For EGDSLRYYYAN | GSNNRPS | SSRDSIGVQVF, the assay gave 3.34 (3 of 3 replicates; controls 3 of 9).
For EGDSLLYYYAN | GKNNRPI | YSRDSSGFQVF, the assay gave 3.36 (3 of 3 replicates; controls 1 of 9).
For EGHSLRYYYAN | GKCNRPN | SSRDSSGFQVF, the assay gave 2.98 (2 of 3 replicates; controls 4 of 9).
For EGDSLRYYYAN | GKNNRPS | SSRDSSGHNYF, the assay gave 2.78 (3 of 3 replicates; controls 2 of 9).
For EGCWLRYYYAN | GWNNRPS | SSRDSSGFQVF, the assay gave 4.87 (1 of 3 replicates; controls 2 of 9).
For EWDSLQYYYAN | GKNNRPS | SSRDSSFFQVF, the assay gave 4.60 (2 of 3 replicates; controls 5 of 9).
For EGDSLRYQYAN | GKNNRPS | SSRDSSGFQFF, the assay gave 1.31 (3 of 3 replicates; controls 2 of 9).
For EGDSLREFYAN | GKNNRPS | SSRDSSGFQVF, the assay gave 4.14 (3 of 3 replicates; controls 2 of 9).
For ECDSLRYYYAN | GKNNRPS | GSRFSSGFQVF, the assay gave 4.19 (3 of 3 replicates; controls 3 of 9).

5 of these entries, quoted again:

With EGGSLRYYSAN | GKNNRPS | SSRDSSGFVVF the result was 3.25 (3 of 3 replicates; controls 0 of 9).
With EGDSLRYKYAN | GKNNRPS | SSCDSMGFQVF the result was no signal (0 of 3 replicates; controls 0 of 9).
With EGDSLRYYYAN | GKNNRPD | RSRDLSGFQVF the result was 3.66 (2 of 3 replicates; controls 2 of 9).
With EGDSLREFYAN | GKNNRPS | SSRDSSGFQVF the result was 4.14 (3 of 3 replicates; controls 2 of 9).
With EGDSHRYYYGW | GKNNRPS | SSRDSSGFQVF the result was 5.56 (1 of 3 replicates; controls 4 of 9).

From the AlphaSeq antibody data of Engelhart et al. 2022 (doi:10.1038/s41597-022-01779-4), copy in the FLAb collection.